# Reference: PubChem BioAssay (Tox21)
# Values joined by “and” are separate entries in the source; they are usually repeats but may differ in a detail not shown here. Identical values can stand only once. The entries are a selection whose mix differs from that of the whole data set. Records with an inconclusive call do not appear. Active and inactive are the calls of the source. The call rests on the fitted dose curve; in most records, active means well fitted curve in the direction sought with a large enough effect in the signal ratio in the repeat runs (not every such curve was filed as active); inconclusive means weak or mixed curves, or a change in a side signal; inactive means no such curve, though single readings can be large or run the other way; the % refers to the signal ratio.
# Assay: qHTS assay to identify small molecule agonists of the NFkB signaling pathway (AID 1159509)
# Settings: NFkB-bla ME-180 cells, beta-lactamase FRET ratio, 5 h; at 61 µM (top of the series) unless noted
# Excerpt: National Center for Advancing Translational Sciences [NCATS]
# NIH Chemical Genomics Center [NCGC]
# U.S. Environmental Protection Agency [EPA]
# National Institutes of Environmental Health Sciences [NIEHS]
# National Toxicology Program [NTP]
# U.S. Food and Drug Administration [FDA]
# Transcription factors and their stimulated target gene expression play pivotal roles across many cellular processes including responses to environmental stimuli. Proper regulation of associated pathways is critical to maintain cell health and function. Constitutive activation of transcription factor pathways has been implicated in tumors as it may block cellular functions such as apoptosis and lead to invasion and metastasis. One important transcription factor that stimulates gene expression in response to cytokines, UV radiation, and other stimuli is nuclear factor-kappa B (NFkB). To measure activation of the NFkB pathway, the CellSensor NFkB-bla ME-180 cell line (Life Technologies, Carlsbad, CA) that stably expresses beta-lactamase reporter gene under the regulation of a NF-kB response element was used. This assay allows measurement of the NFkB pathway activity induced by compounds in a ME-180 cell line. This system quantitates NF-kB activity using a FRET-based assay system where beta-lactamase expression disrupts FRET, allowing for fluorescent measurement of activity. This cell line has been used to screen the Tox21 10K compound library and to identify compounds that induce the NFkB pathway activity.
# Tox21 Assay Protocol Summary:
# NFkB-bla ME-180 cells were dispensed at 2,000 cells/6 uL of assay medium per well into black wall/clear-bottom 1536-well plates using a Multidrop Combi (ThermoFisher Scientific, Waltham, MA) dispenser. After the assay plates were incubated at 37 C and 5% CO2 for an overnight, 23 nL of compounds dissolved in DMSO, positive controls or DMSO only was transferred to the assay plate by a Pintool station (Kalypsys, San Diego, CA). The assay plates were incubated at 37 C and 5% CO2 for 5 hr. One uL of LiveBLAzer B/G FRET substrate (Life Technologies) was added using a Flying Reagent Dispenser (Aurora Discovery, San Diego, CA) and the plates were incubated at room temperature for 1.5 hr. Fluorescence intensity (405 nm excitation, 460 nm and 530 nm emissions) was measured using an Envision plate reader (PerkinElmer, Shelton, CT).
# On the % scale 0 is the no-effect control and ±100 the full control effect.
row,SMILES,activation
1,ClP(Cl)c1ccccc1,inactive: -0.797%
2,CCCCO[P+](=O)OCCCC,inactive: -0.0475% and inactive: -0.0121%
3,CC(C)CCCCCCCOP(OCCCCCCCC(C)C)Oc1ccccc1,inactive: 0.729%
4,Cc1cc([N+](=O)[O-])cc([N+](=O)[O-])c1O,inactive: -0.363% and inactive: -1.26%
5,O=P(Cl)(Oc1ccccc1)Oc1ccccc1,inactive: -1.19%
6,CN(C(=O)Cc1cccc2occc12)[C@H]1CC[C@@]2(CCCO2)C[C@@H]1N1CCCC1,inactive: -0.0074%
7,CCOP(=S)(CC)Sc1ccccc1 (stereo not drawn),inactive: 0.816%
8,CCCCC(CC)CO[P+](=O)OCC(CC)CCCC (stereo not drawn),inactive: -0.3%
9,COP(=S)(Cl)OC,inactive: -0.998% [at 78.8 µM]
10,CCNC(C)Cc1ccc2c(c1)OCO2 (stereo not drawn),inactive: 0.981% [at 78.8 µM]
11,CCOC(=O)Cl,inactive: 0.204%
12,O=[p+]1oc2ccccc2c2ccccc21 (stereo not drawn),inactive: -0.284%
13,CN(C(=O)Cc1ccc(Cl)c(Cl)c1)[C@H]1CC[C@@]2(CCCO2)C[C@@H]1N1CCCC1,inactive: 0.0264%
